# Data reported in patent US9242969B2, “Biaryl amide compounds as kinase inhibitors” (Novartis AG, priority 2013, dated 2016).
# Amino acid sequences for entries named in this document (tags omitted).
# UniProt P04049, whole entry Y340E/Y341E: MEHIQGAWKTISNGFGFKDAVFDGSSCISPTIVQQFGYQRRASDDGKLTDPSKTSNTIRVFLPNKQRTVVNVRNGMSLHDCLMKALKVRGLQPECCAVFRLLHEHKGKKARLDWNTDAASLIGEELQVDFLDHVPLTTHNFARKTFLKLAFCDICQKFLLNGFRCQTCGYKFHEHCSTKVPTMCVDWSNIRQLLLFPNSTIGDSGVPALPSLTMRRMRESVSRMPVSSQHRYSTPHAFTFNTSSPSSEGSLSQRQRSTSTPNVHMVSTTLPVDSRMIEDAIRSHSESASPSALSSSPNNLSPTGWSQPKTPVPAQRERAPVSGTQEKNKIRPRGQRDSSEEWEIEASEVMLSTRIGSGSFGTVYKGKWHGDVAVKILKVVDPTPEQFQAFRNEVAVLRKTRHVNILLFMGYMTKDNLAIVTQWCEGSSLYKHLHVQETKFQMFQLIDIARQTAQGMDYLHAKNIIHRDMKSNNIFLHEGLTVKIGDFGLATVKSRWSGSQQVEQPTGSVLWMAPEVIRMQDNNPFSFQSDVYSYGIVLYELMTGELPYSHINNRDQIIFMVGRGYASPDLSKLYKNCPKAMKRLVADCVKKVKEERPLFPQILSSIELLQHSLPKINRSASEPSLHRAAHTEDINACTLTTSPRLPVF
# Target: C-Raf FL (full-length C-Raf with Y340E and Y341E activating mutations) (Homo sapiens (Human), UniProt P04049, Y340E/Y341E)
# Format: biochemical
# Settings: full-length c-Raf 4 pM, ATP 3 uM, 10 nM biotinylated MEK1 kinase dead
row,SMILES,IC50
1,"Cc1ccc(NC(=O)c2cccc(C(F)(F)F)c2)cc1-c1cc(N2CCOCC2)c(=O)n(C(C)C)c1 [Example 135, N-(3-(1-isopropyl-5-morpholino-6-oxo-1,6-dihydropyridin-3-yl)-4-methylphenyl)-3-(trifluoromethyl)benzamide]",0.322 nM
2,"Cc1ccc(NC(=O)c2cccc(C(F)(F)F)c2)cc1-c1cnc(OC(C)C)c(N2CCOCC2)c1 [Example 136, N-(3-(6-isopropoxy-5-morpholinopyridin-3-yl)-4-methylphenyl)-3-(trifluoromethyl)benzamide]",0.503 nM
3,"Cc1ccc(C(=O)Nc2cccc(C(F)(F)F)c2)cc1-c1cc(N2CCOCC2)c(=O)n(C)c1 [Example 137, 4-methyl-3-(1-methyl-5-morpholino-6-oxo-1,6-dihydropyridin-3-yl)-N-(3-(trifluoromethyl)phenyl)benzamide]",0.527 nM
4,Cc1ncc(NC(=O)c2cccc(C(F)(F)F)c2)cc1-c1cc(N2CCOCC2)c(=O)n(C)c1 [Example 138],0.652 nM
5,"Cc1ccc(NC(=O)c2ccnc(C(C)(C)C)c2)cc1-c1cc(N2CCOCC2)c(=O)n(C)c1 [Example 139, 2-(tert-butyl)-N-(4-methyl-3-(1-methyl-5-morpholino-6-oxo-1,6-dihydropyridin-3-yl)phenyl)isonicotinamide]",0.491 nM
6,"Cc1ccc(NC(=O)c2ccnc(C(C)(C)C#N)c2)cc1-c1cc(N2CCOCC2)c(=O)n(C)c1 [Example 140, 2-(2-cyanopropan-2-yl)-N-(4-methyl-3-(1-methyl-5-morpholino-6-oxo-1,6-dihydropyridin-3-yl)phenyl)isonicotinamide]",0.483 nM
7,"Cc1ccc(NC(=O)c2ccnc(C(C)(C)C#N)c2)cc1-c1cc(N2CCOCC2)c(=O)n(CCO)c1 [Example 143, 2-(2-cyanopropan-2-yl)-N-(3-(1-(2-hydroxyethyl)-5-morpholino-6-oxo-1,6-dihydropyridin-3-yl)-4-methylphenyl)isonicotinamide]",2.26 nM
8,"Cc1ncc(NC(=O)c2cccc(C(F)(F)F)c2)cc1-c1cc(N2CCOCC2)c(=O)n(CCO)c1 [Example 144, N-(1′-(2-hydroxyethyl)-2-methyl-5′-morpholino-6′-oxo-1′,6′-dihydro-[3,3′-bipyridin]-5-yl)-3-(trifluoromethyl)benzamide]",2.69 nM
9,"Cc1ccc(NC(=O)c2cccc(C(F)(F)F)c2)cc1-c1c[nH]c(=O)c(N2CCOCC2)c1 [Example 146, N-(4-methyl-3-(5-morpholino-6-oxo-1,6-dihydropyridin-3-yl)phenyl)-3-(trifluoromethyl)benzamide]",0.219 nM
10,"Cc1ccc(NC(=O)c2cccc(C(F)(F)F)c2)cc1-c1cc(N2CCOCC2)c(=O)n(CC#N)c1 [Example 147, N-(3-(1-(cyanomethyl)-5-morpholino-6-oxo-1,6-dihydropyridin-3-yl)-4-methylphenyl)-3-(trifluoromethyl)benzamide]",0.103 nM
11,"Cc1ccc(NC(=O)c2cccc(C(F)(F)F)c2)cc1-c1cc(N2CCOCC2)c(=O)n([C@H](C)C#N)c1 [Example 148, (R)—N-(3-(1-(1-cyanoethyl)-5-morpholino-6-oxo-1,6-dihydropyridin-3-yl)-4-methylphenyl)-3-(trifluoromethyl)benzamide]",0.285 nM
12,"Cc1ccc(NC(=O)c2cccc(C(F)(F)F)c2)cc1-c1cc(N2CCOCC2)c(=O)n([C@@H](C)C#N)c1 [Example 149, (S)—N-(3-(1-(1-cyanoethyl)-5-morpholino-6-oxo-1,6-dihydropyridin-3-yl)-4-methylphenyl)-3-(trifluoromethyl)benzamide]",0.273 nM
13,"Cc1ncc(NC(=O)c2cccc(C(F)(F)F)c2)cc1-c1cc(N2CCOCC2)c(=O)n(CCS(C)(=O)=O)c1 [Example 151, N-(2-methyl-1′-(2-(methylsulfonyl)ethyl)-5′-morpholino-6′-oxo-1′,6′-dihydro-[3,3′-bipyridin]-5-yl)-3-(trifluoromethyl)benzamide]",2.9 nM
14,"Cc1ccc(NC(=O)c2cccc(C(F)(F)F)c2)cc1-c1cnc(O[C@@H](C)C#N)c(N2CCOCC2)c1 [Example 152, (S)—N-(3-(6-(1-cyanoethoxy)-5-morpholinopyridin-3-yl)-4-methylphenyl)-3-(trifluoromethyl)benzamide]",0.474 nM
15,"Cc1ccc(NC(=O)c2cccc(C(F)(F)F)c2)cc1-c1cnc(O[C@H](C)C#N)c(N2CCOCC2)c1 [Example 153, (R)—N-(3-(6-(1-cyanoethoxy)-5-morpholinopyridin-3-yl)-4-methylphenyl)-3-(trifluoromethyl)benzamide]",0.196 nM
16,"Cc1ccc(C(=O)Nc2cccc(C(F)(F)F)c2)cc1-c1cc(N2CCOCC2)c(=O)n(CCS(C)(=O)=O)c1 [Example 154, 4-methyl-3-(1-(2-(methylsulfonyl)ethyl)-5-morpholino-6-oxo-1,6-dihydropyridin-3-yl)-N-(3-(trifluoromethyl)phenyl)benzamide]",1.09 nM
17,"CCn1cc(-c2cc(NC(=O)c3cccc(C(F)(F)F)c3)cnc2C)cc(N2CCOCC2)c1=O [Example 157, N-(1′-ethyl-2-methyl-5′-morpholino-6′-oxo-1′,6′-dihydro-[3,3′-bipyridin]-5-yl)-3-(trifluoromethyl)benzamide]",2.13 nM

row,SMILES,IC50
1,"CCOc1ncc(-c2cc(NC(=O)c3ccnc(C(C)(C)C#N)c3)ccc2C)cc1N1CCOCC1 [Example 161, 2-(2-cyanopropan-2-yl)-N-(3-(6-ethoxy-5-morpholinopyridin-3-yl)-4-methylphenyl)isonicotinamide]",0.393 nM
2,"Cc1ccc(NC(=O)c2cccc(C(F)(F)F)c2)cc1-c1cc(N2CCOCC2)n(C)c(=O)c1 [Example 162, N-(4-methyl-3-(1-methyl-6-morpholino-2-oxo-1,2-dihydropyridin-4-yl)phenyl)-3-(trifluoromethyl)benzamide]",0.215 nM
3,"Cc1ccc(NC(=O)c2cccc(C(F)(F)F)c2)cc1-c1cc(N2CCOCC2)c(=O)n(C)n1 [Example 164, N-(4-methyl-3-(1-methyl-5-morpholino-6-oxo-1,6-dihydropyridazin-3-yl)phenyl)-3-(trifluoromethyl)benzamide]",0.255 nM
4,"Cc1ncc(NC(=O)c2cccc(C(F)(F)F)c2)cc1-c1cc(N2CCOCC2)c(=O)n(C)n1 [Example 166, N-(6-methyl-5-(1-methyl-5-morpholino-6-oxo-1,6-dihydropyridazin-3-yl)pyridin-3-yl)-3-(trifluoromethyl)benzamide]",0.665 nM
5,"CCn1cc(-c2cc(NC(=O)c3cccc(C(F)(F)F)c3)ccc2C)nc(N2CCOCC2)c1=O [Example 169, N-(3-(4-ethyl-6-morpholino-5-oxo-4,5-dihydropyrazin-2-yl)-4-methylphenyl)-3-(trifluoromethyl)benzamide]",0.18 nM
6,"Cc1ccc(NC(=O)c2cccc(C(F)(F)F)c2)cc1-c1cn(CC(F)F)c(=O)c(N2CCOCC2)n1 [Example 170, N-(3-(4-(2,2-difluoroethyl)-6-morpholino-5-oxo-4,5-dihydropyrazin-2-yl)-4-methylphenyl)-3-(trifluoromethyl)benzamide]",0.263 nM
7,"CCN1CCN(c2cc(C(=O)Nc3ccc(C)c(-c4cc(N5CCOCC5)c(=O)n(C)c4)c3)cc(C(F)(F)F)c2)CC1 [Example 174, 3-(4-ethylpiperazin-1-yl)-N-(4-methyl-3-(1-methyl-5-morpholino-6-oxo-1,6-dihydropyridin-3-yl)phenyl)-5-(trifluoromethyl)benzamide]",2.24 nM
8,"Cc1ccc(NC(=O)c2cncc(N(C)C)c2)cc1-c1cc(N2CCOCC2)c(=O)n(C)c1 [Example 175, 5-(dimethylamino)-N-(4-methyl-3-(1-methyl-5-morpholino-6-oxo-1,6-dihydropyridin-3-yl)phenyl)nicotinamide]",0.23 nM
9,"Cc1ccc(NC(=O)c2cc(C(F)(F)F)cc(S(C)(=O)=O)c2)cc1-c1cc(N2CCOCC2)c(=O)n(C)c1 [Example 176, N-(4-methyl-3-(1-methyl-5-morpholino-6-oxo-1,6-dihydropyridin-3-yl)phenyl)-3-(methylsulfonyl)-5-(trifluoromethyl)benzamide]",0.398 nM
10,"Cc1ccc(NC(=O)c2ccnc(C(C)(F)F)c2)cc1-c1cc(N2CCOCC2)c(=O)n(C)c1 [Example 178, 2-(1,1-difluoroethyl)-N-(4-methyl-3-(1-methyl-5-morpholino-6-oxo-1,6-dihydropyridin-3-yl)phenyl)isonicotinamide]",0.172 nM
11,"Cc1ccc(NC(=O)c2ccnc(C(F)(F)F)c2)cc1-c1cc(N2CCOCC2)c(=O)n(C)c1 [Example 179, N-(4-methyl-3-(1-methyl-5-morpholino-6-oxo-1,6-dihydropyridin-3-yl)phenyl)-2-(trifluoromethyl)isonicotinamide]",0.16 nM
12,"COc1cc(C(=O)Nc2cnc(C)c(-c3cc(N4CCOCC4)c(=O)n(C)c3)c2)ccc1F [Example 182, N-(1′,2-dimethyl-5′-morpholino-6′-oxo-1′,6′-dihydro-[3,3′-bipyridin]-5-yl)-4-fluoro-3-methoxybenzamide]",2.26 nM
13,"Cc1ccc(NC(=O)c2ccnc(S(C)(=O)=O)c2)cc1-c1cc(N2CCOCC2)c(=O)n(C)c1 [Example 184, N-(4-methyl-3-(1-methyl-5-morpholino-6-oxo-1,6-dihydropyridin-3-yl)phenyl)-2-(methylsulfonyl)isonicotinamide]",0.479 nM
14,Cc1ccc(NC(=O)c2cccc(C(F)F)c2)cc1-c1cc(N2CCOCC2)c(=O)n(C)n1 [Example 186],0.278 nM
15,"Cc1ccc(NC(=O)c2ccnc(C(F)F)c2)cc1-c1cc(N2CCOCC2)c(=O)n(C)n1 [Example 189, 2-(difluoromethyl)-N-(4-methyl-3-(1-methyl-5-morpholino-6-oxo-1,6-dihydropyridazin-3-yl)phenyl)isonicotinamide]",0.678 nM
16,"Cc1ccc(NC(=O)c2ccnc(C(C)(C)C#N)c2)cc1-c1cc(N2CCOCC2)c(=O)n(C)n1 [Example 191, 2-(2-cyanopropan-2-yl)-N-(4-methyl-3-(1-methyl-5-morpholino-6-oxo-1,6-dihydropyridazin-3-yl)phenyl)isonicotinamide]",1.43 nM
17,"Cn1cc(-c2cc(C(=O)Nc3cccc(C(F)(F)F)c3)ccc2C(F)F)cc(N2CCOCC2)c1=O [Example 192, 4-(difluoromethyl)-3-(1-methyl-5-morpholino-6-oxo-1,6-dihydropyridin-3-yl)-N-(3-(trifluoromethyl)phenyl)benzamide]",2.51 nM
